According to PubChem BioAssay AID624040 (The Scripps Research Institute Molecular Screening Center, 2012):
This is a selection; strong and weak results do not stand in their true shares. Active and inactive are the calls of the source.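 Rule for the calls: active = inhibition above a per-plate cutoff, the mean of that plate's test compounds plus 3 SD (cut at about 27% in these data); inactive = the rest.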

Protein sequences, listed by entry. Tags and fused reporters are not part of them.
UniProt P08912, whole entry: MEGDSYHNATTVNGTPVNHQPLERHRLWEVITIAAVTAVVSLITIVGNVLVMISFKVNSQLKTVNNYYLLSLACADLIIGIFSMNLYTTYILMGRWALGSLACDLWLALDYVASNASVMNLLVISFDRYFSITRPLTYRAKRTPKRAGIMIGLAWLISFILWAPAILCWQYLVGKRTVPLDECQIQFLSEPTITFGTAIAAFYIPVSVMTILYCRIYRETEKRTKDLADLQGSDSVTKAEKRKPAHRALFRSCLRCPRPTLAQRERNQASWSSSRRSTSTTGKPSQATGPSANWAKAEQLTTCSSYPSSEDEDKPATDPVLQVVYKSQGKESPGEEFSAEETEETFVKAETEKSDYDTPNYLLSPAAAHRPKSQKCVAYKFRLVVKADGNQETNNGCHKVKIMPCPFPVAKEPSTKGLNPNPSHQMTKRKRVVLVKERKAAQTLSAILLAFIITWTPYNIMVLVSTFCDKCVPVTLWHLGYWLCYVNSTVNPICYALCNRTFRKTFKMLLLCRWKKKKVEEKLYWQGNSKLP

Biological target: Muscarinic acetylcholine receptor M5 (Homo sapiens) (UniProt P08912)
Experiment: CHRM5 blockers of acetylcholine calcium response – CHO cells, Fluo-8 calcium fluorescence, primary screen (AID 624040);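 note: 0% = acetylcholine EC80 with DMSO and 100% = DMSO without agonist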
Settings: CHO-hM5 cells, ACh EC80, at 3 µM, active compounds read high

| Compound | inhibition |
| --- | --- |
| CCCCn1nnnc1C(c1ccccc1OC(F)(F)F)N1CCC(n2c(=O)[nH]c3ccccc32)CC1 (stereo not given) | inactive: -3.26% |
| CC(C)c1ccc(NC2CCN(C(=O)OC(C)(C)C)CC2)cc1 | inactive: 2.18% |
| CN(C)c1cccc(C(=O)NCC2(N3CCCCC3)CCCCC2)c1 | inactive: 4.74% |
| COc1ccc(CN(CCCl)CCCl)cc1Cl | inactive: -13.2% |
| O=C(NCC1(N2CCOCC2)CCCCC1)c1cc(F)c(F)cc1Cl | inactive: 3.52% |
| CCC(c1nnnn1C(C)(C)C)N1CCC(n2c(=O)[nH]c3ccccc32)CC1 (stereo not given) | inactive: 1.32% |
| COc1cc(OC)c(C(=O)NCC2(N(C)C)CCCCC2)cc1OC | inactive: 6.04% |
| CCCCn1nnnc1C(c1ccnc2ccccc12)N1CCC(n2c(=O)[nH]c3ccccc32)CC1 (stereo not given) | inactive: 12.1% |
| CN1CCC(Nc2cccc(F)c2)CC1 | inactive: -2.54% |
| O=C(NCC1(N2CCCCC2)CCCCC1)c1cncc(Br)c1 | inactive: 8.87% |
| COc1ccc(C(c2nnnn2C2CCCC2)N2CCC(n3c(=O)[nH]c4ccccc43)CC2)cc1 (stereo not given) | inactive: -0.51% |
| CCCOc1ccc(C(=O)NCC2(N(C)C)CCCCC2)cc1OC | inactive: 2.74% |
| Cc1ccc(C(=O)NCC2(N(C)C)CCCCC2)o1 | inactive: -4.06% |
| O=C(NCC1(N2CCCCC2)CCCCC1)c1ccc(OC(F)F)cc1 | inactive: 12.3% |
| CC(C)(C)n1nnnc1C(c1ccccc1OC(F)(F)F)N1CCC(n2c(=O)[nH]c3ccccc32)CC1 (stereo not given) | inactive: 12.4% |
| O=c1[nH]c2ccccc2n1C1CCN(C(c2ccccc2OC(F)(F)F)c2nnnn2C2CCCC2)CC1 (stereo not given) | inactive: -5.72% |
| N#CC1(Nc2ccccc2)CCN(CCc2ccccc2)CC1 | inactive: -2.9% |
| CCN1CCC(Nc2ccc(Cl)cc2)CC1 | inactive: 9.13% |
| O=C(NCC1(N2CCCCC2)CCCCC1)c1cccc([N+](=O)[O-])c1 | inactive: 6.45% |
| CSc1ccc(C(=O)NCC2(N3CCOCC3)CCCCC2)cc1 | inactive: -6.03% |
| O=C(NCC1(N2CCCCC2)CCCCC1)c1cccc(C(F)(F)F)c1 | inactive: 8.38% |
| COc1cc(C(=O)NCC2(N3CCCCC3)CCCCC2)ccc1OC(F)F | inactive: 7.07% |
| O=C(NCC1(N2CCOCC2)CCCCC1)c1cc(=O)[nH]c2ccccc12 | inactive: -5.17% |
| CN1CCN(CCOC(=O)C(O)(c2ccccc2)c2ccccc2)CC1 | inactive: 20.2% |
| COc1ccc(NC2CCN(C(=O)OC(C)(C)C)CC2)cc1 | inactive: 4.96% |
| CC(C)c1ccc(C(=O)NCC2(N3CCOCC3)CCCCC2)cc1 | inactive: 3.47% |
| CCCCn1nnnc1C(c1cccc2ccccc12)N1CCC(n2c(=O)[nH]c3ccccc32)CC1 (stereo not given) | inactive: 5.27% |

| Compound | inhibition |
| --- | --- |
| O=C1CCN(Cc2ccccc2)CC1 | inactive: 3.63% |
| CC(C)(C)n1nnnc1C(c1ccccc1)N1CCC(n2c(=O)[nH]c3ccccc32)CC1 (stereo not given) | inactive: 5.33% |
| CCOc1ccc(C)cc1CN(CCCl)CCCl | inactive: 12.5% |
| COc1ccc(NC2CCN(CCc3ccccc3)CC2)c(OC)c1 | inactive: 1.06% |
| CCOC(=O)N1CCC(Nc2ccc(F)cc2)CC1 | inactive: 10.2% |
| CCCCn1nnnc1C(c1cc2ccccc2o1)N1CCC(n2c(=O)[nH]c3ccccc32)CC1 (stereo not given) | inactive: 4.84% |
| O=P1(N(CCCl)CCCl)SCCCS1 | inactive: 2.1% |
| CCCCOc1ccc(C(=O)NCC2(N3CCOCC3)CCCCC2)cc1 | inactive: -3.14% |
| O=C(NCC1(N2CCCCC2)CCCCC1)c1ccc(F)cc1 | inactive: 12.6% |
| O=c1[nH]c2ccccc2n1C1CCN(C(c2ccccc2)c2nnnn2C2CCCCC2)CC1 (stereo not given) | inactive: 7.82% |
| CCOC(=O)N1CCC(Nc2cccc(C)c2)CC1 | inactive: 25.3% |
| COc1cc(C(=O)NCC2(N(C)C)CCCCC2)ccc1OC(F)F | inactive: 10.8% |
| O=c1[nH]c2ccccc2n1C1CCN(C(c2cccc3ccccc23)c2nnnn2C2CCCC2)CC1 (stereo not given) | inactive: -12.9% |
| COc1ccc(C(=O)NCC2(N3CCCCC3)CCCCC2)c(OC)c1OC | inactive: 0.21% |
| CC(C)(C)OC(=O)N1CCC(N(C(=O)c2ccccc2)c2ccc(F)cc2)CC1 | inactive: 2.37% |
| CCC(c1nnnn1C1CCCC1)N1CCC(n2c(=O)[nH]c3ccccc32)CC1 (stereo not given) | inactive: 5.07% |
| COc1ccc(C(=O)NCC2(N3CCCCC3)CCCCC2)cc1 | inactive: 3.16% |
| CCCCn1nnnc1C(CC)N1CCC(n2c(=O)[nH]c3ccccc32)CC1 (stereo not given) | inactive: 19.8% |
| O=C(NCC1(N2CCCCC2)CCCCC1)c1cccs1 | inactive: 11.5% |
| CCCCn1nnnc1C(c1cccs1)N1CCC(n2c(=O)[nH]c3ccccc32)CC1 (stereo not given) | inactive: 16.6% |
| O=C(NCC1(N2CCCCC2)CCCCC1)c1ccc(=O)[nH]c1 | inactive: -0.06% |
| Cc1cccc(NC2(C#N)CCN(Cc3ccccc3)CC2)c1 | inactive: 10.6% |
| CSc1ccccc1C(=O)NCC1(N2CCCCC2)CCCCC1 | inactive: 1.39% |
| Cc1cc(C)cc(N(C(=O)c2ccccc2)C2CCN(C(=O)OC(C)(C)C)CC2)c1 | inactive: 5.75% |
| O=C(NCC1(N2CCCCC2)CCCCC1)c1ccc(Cl)nc1 | inactive: 3.87% |
| O=c1[nH]c2ccccc2n1C1CCN(C(c2ccccc2OC(F)(F)F)c2nnnn2C2CCCCC2)CC1 (stereo not given) | inactive: 3.5% |
| O=C(NCC1(N2CCOCC2)CCCCC1)c1cc2ccccc2o1 | inactive: -3.71% |

| Compound | inhibition |
| --- | --- |
| COc1ccc(Cl)cc1C(=O)NCC1(N2CCOCC2)CCCCC1 | inactive: -3.62% |
| O=C(NCC1(N2CCCCC2)CCCCC1)c1ccc(Cl)s1 | inactive: 7.51% |
| N#CC1(Nc2ccccc2)CCN(Cc2ccccc2)CC1 | inactive: 5.53% |
| O=c1[nH]c2ccccc2n1C1CCN(C(c2cc3ccccc3o2)c2nnnn2C2CCCCC2)CC1 (stereo not given) | inactive: 10.5% |
| CCCCn1nnnc1C(c1ccc(OC)cc1)N1CCC(n2c(=O)[nH]c3ccccc32)CC1 (stereo not given) | inactive: 19.4% |
| CCOC(=O)N1CCC(Nc2ccc(OC)cc2)CC1 | inactive: 4.74% |
| CN1CCC(Nc2ccc(F)c(Cl)c2)CC1 | inactive: 17.1% |
| CCOc1ncccc1C(=O)NCC1(N2CCOCC2)CCCCC1 | inactive: 1.12% |
| O=C(O)C1(Nc2ccccc2)CCN(Cc2ccccc2)CC1 | inactive: 5.96% |
| NN(c1ccccc1)C1CCN(CCc2ccccc2)CC1 | inactive: 5.22% |
| CC(C)(C)OC(=O)N1CCC(Nc2ccccc2)CC1 | inactive: 14% |
| O=c1[nH]c2ccccc2n1C1CCN(C(c2cc3ccccc3o2)c2nnnn2C2CCCC2)CC1 (stereo not given) | inactive: 9.04% |
| CCCOc1ccc(C(=O)NCC2(N(C)C)CCCCC2)cc1 | inactive: 9.38% |
| COc1cc(OC)cc(C(=O)NCC2(N3CCOCC3)CCCCC2)c1 | inactive: 4.37% |
| COc1cccc(C(c2nnnn2C2CCCC2)N2CCC(n3c(=O)[nH]c4ccccc43)CC2)c1OC (stereo not given) | inactive: 16.1% |
| COc1cccc(C(=O)N(c2cc(C)cc(C)c2)C2CCN(C(=O)OC(C)(C)C)CC2)c1 | inactive: 4.82% |
| CN1CCC(Nc2ccc(Cl)cc2)CC1 | inactive: 5.88% |
| CCC(c1nnnn1C1CCCCC1)N1CCC(n2c(=O)[nH]c3ccccc32)CC1 (stereo not given) | inactive: -6.62% |
| COc1cccc(C(c2nnnn2C2CCCCC2)N2CCC(n3c(=O)[nH]c4ccccc43)CC2)c1OC (stereo not given) | inactive: 11.8% |
| CC(=O)N(c1ccccc1)C1CCNCC1 | inactive: 0.02% |
| COc1cc(OC)cc(C(=O)NCC2(N3CCCCC3)CCCCC2)c1 | inactive: 9.77% |
| O=c1[nH]c2ccccc2n1C1CCN(C(c2ccnc3ccccc23)c2nnnn2C2CCCCC2)CC1 (stereo not given) | inactive: 13.6% |
| Fc1ccccc1NC1CCN(Cc2ccccc2)CC1 | inactive: -4.64% |
| Cc1ccc(C(=O)NCC2(N3CCCCC3)CCCCC2)o1 | inactive: 0.14% |
| Cc1ccc(NC2(C#N)CCN(Cc3ccccc3)CC2)cc1 | inactive: 11.4% |
| COc1ccc(C(c2nnnn2C2CCCCC2)N2CCC(n3c(=O)[nH]c4ccccc43)CC2)cc1 (stereo not given) | inactive: -10.4% |
| CCN1CCC(Nc2cccc(F)c2)CC1 | inactive: -9.33% |

| Compound | inhibition |
| --- | --- |
| CC(C)(C)n1nnnc1C(c1ccnc2ccccc12)N1CCC(n2c(=O)[nH]c3ccccc32)CC1 (stereo not given) | inactive: 4.79% |
| Cc1ccccc1NC1(C#N)CCN(Cc2ccccc2)CC1 | inactive: 6.37% |
| CN(C)c1ccc(C(=O)NCC2(N3CCCCC3)CCCCC2)cc1 | inactive: 10.6% |
| Cn1c(=O)[nH]cc(N(CCCl)CCCl)c1=O | inactive: 10.3% |
| O=C(NCC1(N2CCCCC2)CCCCC1)c1ccco1 | inactive: 4.57% |
| N#Cc1ccc(C(=O)NCC2(N3CCCCC3)CCCCC2)cc1 | inactive: -0.14% |
| CC(C)(C)OC(=O)N1CCC(N(C(=O)c2ccccc2)c2ccc(Cl)cc2)CC1 | inactive: 2.43% |
| CN(C)C1(CNC(=O)c2cccc(C#N)c2)CCCCC1 | inactive: -1.35% |
| O=c1[nH]c2ccccc2n1C1CCN(C(c2ccccc2)c2nnnn2C2CCCC2)CC1 (stereo not given) | inactive: 13.7% |
| CCCN1CCC(Nc2cc(OC)cc(OC)c2)CC1 | inactive: -3.9% |
| Cc1cc(N(CCCl)CCCl)ccc1C=O | inactive: 9.84% |
| c1ccc(CN2CCC(Nc3ccccc3)CC2)cc1 | inactive: -0.39% |
| CC(C)(C)n1nnnc1C(c1cccc2ccccc12)N1CCC(n2c(=O)[nH]c3ccccc32)CC1 (stereo not given) | inactive: 8.23% |
| COc1cc(C(=O)NCC2(N3CCOCC3)CCCCC2)cc(OC)c1C | inactive: 3.41% |
| CCCCn1nnnc1C(c1ccccc1)N1CCC(n2c(=O)[nH]c3ccccc32)CC1 (stereo not given) | inactive: 7.79% |
| O=C(NCC1(N2CCOCC2)CCCCC1)c1cc(Br)ccc1Cl | inactive: -1.34% |
| O=c1[nH]c2ccccc2n1C1CCN(C(c2cccs2)c2nnnn2C2CCCCC2)CC1 (stereo not given) | inactive: 0.73% |
| O=c1[nH]c2ccccc2n1C1CCN(C(c2ccnc3ccccc23)c2nnnn2C2CCCC2)CC1 (stereo not given) | inactive: 10.8% |
| COc1ccc(C(=O)NCC2(N3CCOCC3)CCCCC2)cc1OC | inactive: 1.34% |
| CCOC(=O)N1CCC(Nc2ccc(C)cc2)CC1 | inactive: -8.68% |
| COc1cccc(C(c2nnnn2C(C)(C)C)N2CCC(n3c(=O)[nH]c4ccccc43)CC2)c1OC (stereo not given) | inactive: 9.08% |
| N/C(=N\O)c1c(N)no[n+]1[O-] | inactive: -0.23% |
| O=c1[nH]c2ccccc2n1C1CCN(C(c2cccs2)c2nnnn2C2CCCC2)CC1 (stereo not given) | inactive: 6.17% |
| CCCCn1nnnc1C(c1cccc(OC)c1OC)N1CCC(n2c(=O)[nH]c3ccccc32)CC1 (stereo not given) | inactive: 11.9% |
